In the experiment the target is PHD2 (catalytic domain) (Homo sapiens, UniProt Q9GZT9). The experiment can be described thus: MALDI-TOF MS peptide hydroxylation assay, PHD2.

Sequences of proteins named here, by UniProt entry; tags and fusion partners are left off. Residues count along the entry.
UniProt Q9GZT9, 181-426 limits assumed: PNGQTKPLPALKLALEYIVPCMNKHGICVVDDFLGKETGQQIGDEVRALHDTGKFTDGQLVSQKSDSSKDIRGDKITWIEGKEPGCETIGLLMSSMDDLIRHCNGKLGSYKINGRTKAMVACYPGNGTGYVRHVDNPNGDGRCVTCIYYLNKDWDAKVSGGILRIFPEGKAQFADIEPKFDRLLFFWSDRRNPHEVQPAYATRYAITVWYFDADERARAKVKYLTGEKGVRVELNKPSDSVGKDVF

SMILES strings stand for the structures. pIC50: −log10 of the molar value.

A word on the pIC50: it is −log10 of the IC50, conventionally taken in molar units. `O=C(O)c1ccc(O)c2ncccc12` [SID 85736331, 5-carboxy-8-hydroxyquinoline] gave a pIC50 of 4.84.
